Literature values, collected in patent publication US20210009613A1, “ARYLPHOSPHINE OXIDES FOR INHIBITING KINASE ACTIVITY” (Shenzhen TargetRx, Inc., priority 2017, published 2021).

Tested on: ALK+NSCLC
Settings: cited from earlier work

Structure (SMILES): C[C@@H](Oc1cc(-c2cnn(C3CCNCC3)c2)cnc1N)c1c(Cl)ccc(F)c1Cl [Crizotinib]
- ALK-positive patients with no objective response at the beginning of therapy (ALK-positive patients): About 40%
- median progression-free survival (patients with ALK+NSCLC): 8-11 months
- objective response rate (patients with ALK+NSCLC): 60-74%
